Laboratory results taken from ChEMBL document CHEMBL2046406 (J Med Chem, 2012).

By UniProt entry, the sequences of proteins in these tests, tags left out. Where a name states a change or a piece, a line headed by the entry shows the natural chain unless it says otherwise.
UniProt P35372, whole entry: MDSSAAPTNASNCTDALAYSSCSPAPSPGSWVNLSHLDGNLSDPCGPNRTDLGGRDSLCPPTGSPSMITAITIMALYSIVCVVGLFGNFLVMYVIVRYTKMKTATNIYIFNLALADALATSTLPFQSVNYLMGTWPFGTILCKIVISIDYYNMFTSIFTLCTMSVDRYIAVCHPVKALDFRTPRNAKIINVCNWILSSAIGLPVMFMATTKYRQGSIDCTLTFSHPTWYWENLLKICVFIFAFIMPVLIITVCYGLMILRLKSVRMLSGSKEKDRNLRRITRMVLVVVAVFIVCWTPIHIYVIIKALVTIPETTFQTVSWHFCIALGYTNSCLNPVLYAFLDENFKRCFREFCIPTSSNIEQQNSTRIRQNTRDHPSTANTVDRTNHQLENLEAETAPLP
UniProt P41145: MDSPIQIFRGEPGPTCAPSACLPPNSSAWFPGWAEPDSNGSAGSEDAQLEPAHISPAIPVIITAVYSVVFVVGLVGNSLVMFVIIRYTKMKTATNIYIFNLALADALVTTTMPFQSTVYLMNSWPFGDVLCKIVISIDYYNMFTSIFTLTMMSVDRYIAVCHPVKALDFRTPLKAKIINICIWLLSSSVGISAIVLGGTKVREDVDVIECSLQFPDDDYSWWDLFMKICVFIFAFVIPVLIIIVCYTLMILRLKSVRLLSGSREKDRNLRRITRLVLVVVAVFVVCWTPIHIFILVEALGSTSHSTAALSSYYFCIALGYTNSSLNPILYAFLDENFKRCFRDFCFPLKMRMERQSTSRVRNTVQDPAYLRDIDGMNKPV

Assays:
Mu-type opioid receptor [1] = target: T1, Mu-type opioid receptor (Homo sapiens, UniProt P35372); test: biochemical; type: cell-based, CHO
Mu-type opioid receptor [2] = target: T1, Mu-type opioid receptor; test: Agonist activity at human mu opioid receptor expressed in CHO cells assessed as stimulation of […]GTPgammaS binding after 60 mins by scintillation counting relative to control; type: functional, cell-based
Method in brief: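 Membranes from CHO cells stably expressing human KOR (15 μg protein per tube) or MOR (7.5 μg protein per tube). Nonspecific binding with 10 μM GTPγS. Filtration, then scintillation counting. Triplicate, at least three experiments.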

Homo sapiens [3] = species: Homo sapiens; test: Selectivity index, ratio of inhibition of human kappa opioid receptor to inhibition of human mu opioid receptor
Homo sapiens [4] = species: Homo sapiens; test: Selectivity index, ratio of inhibition of human delta opioid receptor to inhibition of human mu opioid receptor
Mu-type opioid receptor [5] = target: T1, Mu-type opioid receptor; test: Agonist activity at human mu opioid receptor expressed in CHO cells assessed as stimulation of […]GTPgammaS binding after 60 mins by scintillation counting; type: functional, cell-based
[6] = target: Kappa-type opioid receptor (Homo sapiens, UniProt P41145); test: biochemical; type: cell-based, CHO

Structure (SMILES)	Ki (Mu-type opioid receptor [1])	Selectivity ratio (Homo sapiens [3])	Selectivity ratio (Homo sapiens [4])	also measured
CN1CC[C@]23c4c5ccc(NCc6ccccc6O)c4O[C@H]2[C@@H](O)C=C[C@H]3[C@H]1C5	0.013 µM			
COc1ccccc1CNc1ccc2c3c1O[C@H]1[C@@H](O)C=C[C@H]4[C@@H](C2)N(C)CC[C@@]341	0.0085 µM	> 1200	16	Emax (Mu-type opioid receptor [2]): 81%; EC50 (Mu-type opioid receptor [5]): 0.21 µM
COc1ccc2c3c1O[C@H]1C(=O)CC[C@H]4[C@@H](C2)N(C)CC[C@]314 [HYDROCODONE]				Ki [6]: 0.26 µM
CN1CC[C@]23CCCC[C@H]2[C@H]1Cc1ccc(O)cc13		20	11	
COc1cccc(CNc2ccc3c4c2O[C@H]2[C@@H](O)C=C[C@H]5[C@@H](C3)N(C)CC[C@@]452)c1	0.045 µM			
